Assay results reported in ChEMBL document CHEMBL6103561, “Chemical dissection of selective myeloid leukemia-1 inhibitors: How they were found and evolved” (Eur J Med Chem, 2025).

Tested on: RS4-11
Assay: Antitumor activity against human RS4;11 cells xenografted in mouse assessed as tumor growth inhibition at 50 mg/kg, iv relative to control
Assay type: functional
Set-up: scale not given: the % may be the effect or the level left

`COc1ccc(Oc2ccc(C)cc2-c2ccsc2S(=O)(=O)NCCNC(=O)Nc2cc(C(F)(F)F)cc(C(F)(F)F)c2)cc1OC` was tested, and the Activity was 75%.
